Assay results from PubChem BioAssay AID485347 (National Center for Advancing Translational Sciences (NCATS), 2010).
The entries are a selection whose mix differs from that of the whole data set. Activity calls are given as the source filed them.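 How the source made its calls: active means potentiation over 3 SD above the plate norm (cut at about 30% in these data); inactive means the rest.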

Amino acid sequences for entries named in this document (tags omitted).
UniProt P14416, whole entry, looked up: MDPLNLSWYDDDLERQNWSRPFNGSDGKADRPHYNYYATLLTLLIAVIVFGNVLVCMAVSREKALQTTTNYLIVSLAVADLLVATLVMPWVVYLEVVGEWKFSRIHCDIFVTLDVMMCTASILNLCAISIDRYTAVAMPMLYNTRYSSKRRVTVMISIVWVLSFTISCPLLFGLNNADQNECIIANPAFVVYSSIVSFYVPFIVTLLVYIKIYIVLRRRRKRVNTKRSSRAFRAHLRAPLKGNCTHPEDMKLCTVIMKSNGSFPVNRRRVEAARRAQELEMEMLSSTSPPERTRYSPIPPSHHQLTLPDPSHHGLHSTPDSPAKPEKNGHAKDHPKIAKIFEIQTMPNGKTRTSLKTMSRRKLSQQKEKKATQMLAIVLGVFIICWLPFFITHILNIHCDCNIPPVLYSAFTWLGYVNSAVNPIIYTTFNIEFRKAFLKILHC

target: D(2) dopamine receptor (Homo sapiens) (UniProt P14416); assay: HTS Assay for Positive Allosteric Modulators of the Human D2 Dopamine Receptor: Primary Screen for Potentiators; conditions: HEK293 T-REx D2, calcium flux, EC20 dopamine potentiation; at 10 µM; stronger effect = higher value; further: 0% is about no effect
Outline: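 Tetracycline-induced Hek293 Trex D2 cells, force-coupled to calcium, loaded with no-wash calcium dye. Compound added with 180 s kinetic read for agonism, then EC20 dopamine and a further 180 s read for potentiation.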

Compound	potentiation
CN(C)C1(CNC(=O)c2ccc(Cl)c(S(N)(=O)=O)c2)CCCCC1	inactive: -14.2%
c1nnnn1CCn1cnnn1	inactive: -2.96%
CC(C)C(=O)NC(Sc1ccccc1)C(Cl)(Cl)Cl (stereo unspecified)	inactive: -7.54%
O=P(Nc1nccs1)(c1ccccc1)c1ccccc1	inactive: -3.24%
CC(C)/C=N\N=C(\N)N[N+](=O)[O-]	inactive: 7.11%
CN(C(=O)Cc1ccc(Cl)c(Cl)c1)[C@@H]1CCCC[C@H]1N1CCCC1	inactive: -9.16%
O=[As](O)(c1ccccc1Br)c1ccccc1Br	inactive: 10%
COc1ccccc1CNC(=O)COC(=O)C(O)(c1ccccc1)c1ccccc1	inactive: -7.23%
Clc1n[nH]nc1-c1nn[nH][15n]1	inactive: -2.56%
CC(C)(C)C(=O)NC(Sc1ncccn1)C(Cl)(Cl)Cl (stereo unspecified)	inactive: -5.13%
O=P1(Nc2ccccn2)COc2ccccc2OC1	inactive: 13.7%
CCC1=CC2Cc3nc4ccc(Cl)cc4c(N)c3C(C1)C2 (stereo unspecified)	inactive: -0.926%
CCOP(=O)(NC(=NC(C)c1ccccc1)NC(C)c1ccccc1)OCC (stereo unspecified)	inactive: -0.207%
CCOP(=O)(Nc1ccc(C)cn1)OCC	inactive: 3.34%
Nc1cccc([As](=O)(O)c2ccccc2)c1	inactive: -1.44%
O=P1(Nc2ccc(Br)cn2)COc2ccccc2OC1	inactive: -22.1%
O=[As](O)(c1cccs1)c1cccs1	inactive: 1.79%
Cc1ccc(OCC(=O)OC2CN3CCC2CC3)cc1 (stereo unspecified)	inactive: 4.05%
O=P1(Nc2ncccn2)COc2ccccc2OC1	inactive: -2.66%
CN(C)C1(CNC(=O)c2ccc(S(C)(=O)=O)cc2)CCCCC1	inactive: -4.22%
O=C(/C=C/c1ccccc1)OC1CN2CCC1CC2 (stereo unspecified)	inactive: -2.61%
Cc1nn(-c2ccccc2)c2c1P(=O)(N1CCOCC1)N(C)C(c1ccccc1)=N2 (stereo unspecified)	inactive: -2.38%
CC1CCC(C(C)C)C(OP(=O)(Nc2ccccn2)c2ccccc2)C1 (stereo unspecified)	inactive: 9.63%
Cc1ccc(C(=O)OC2CN3CCC2CC3)cc1 (stereo unspecified)	inactive: 9.1%

Compound	potentiation
N#CCCN(C(=O)COC(=O)C(O)(c1ccccc1)c1ccccc1)c1ccc(F)cc1	inactive: -4.48%
CN(C(=O)Cc1ccccc1)[C@@H]1CC[C@]2(CCCO2)C[C@H]1N1CCCC1	inactive: 4.66%
CCOP1(=S)c2c(C)nn(CCC#N)c2N=C(c2ccc(F)cc2)N1C (stereo unspecified)	inactive: -7.35%
O=[N+]([O-])c1ccc2c(c1)nnn2O	inactive: 1.35%
NC(=O)Nc1ccc([As](=O)(O)O)cc1	inactive: -5.03%
Nc1ccccc1[As](=O)(O)c1ccccc1	inactive: 0.306%
O=C(O)COc1ccc([As](=O)(O)O)cc1[N+](=O)[O-]	inactive: 10.1%
CCOP1(=S)c2c(C)nn(CCC#N)c2N=C(c2ccccc2F)N1C (stereo unspecified)	inactive: 4.51%
O=P(Nc1nccs1)(c1ccccc1)c1nc2ccccc2s1 (stereo unspecified)	inactive: 9.65%
CS(=O)(=O)c1cc([N+](=O)[O-])c2no[n+]([O-])c2c1	inactive: -11%
COc1cc(C2NCCC3(OCCO3)C2(C)C)cc(OC)c1OC (stereo unspecified)	inactive: -0.179%
CCOP(=O)(Nc1cccc2ccccc12)OCC	inactive: 2.71%
Nc1cccc2c([As](=O)(O)O)cccc12	inactive: 14.1%
Cc1ccc(NCCc2c([N+](=O)[O-])cc([N+](=O)[O-])cc2[N+](=O)[O-])cc1	inactive: 11.1%
CCCOP(=S)(Nc1nc(N)cc(=O)[nH]1)OCCC	inactive: 10.8%
O=[As](O)(c1cccc(O)c1)c1cccc(O)c1	inactive: -10.3%
Cc1cccc(OCC(=O)OC2CN3CCC2CC3)c1 (stereo unspecified)	inactive: 4.3%
O=C(OC1CN2CCC1CC2)c1ccc(Cl)cc1 (stereo unspecified)	inactive: 0.726%
COc1cc(C(=O)NCC2(N3CCOCC3)CCCCC2)cc(Cl)c1OC(C)C	inactive: -16.5%
O=[As](O)(O)c1cccnc1	inactive: 5.53%
CS(=O)(=O)c1ccc(Cl)c(NC(=O)COC(=O)C(O)(c2ccccc2)c2ccccc2)c1	inactive: -11%
COc1ccc(N/C(=N/P(=O)(N2CCOCC2)N2CCOCC2)N2CCOCC2)cc1	inactive: -9.08%
COc1ccc2nc(NP(=O)(c3ccccc3)c3ccccc3)sc2c1	inactive: 9.27%
COc1cc(I)ccc1[As](=O)(O)O	inactive: 2.48%

Compound	potentiation
Cc1c2c(nc3ccccc13)SC(C(Cl)Cl)C2 (stereo unspecified)	inactive: -21.8%
O=C(OC1CN2CCC1CC2)C12CC3CC(CC(C3)C1)C2 (stereo unspecified)	inactive: -0.715%
Cc1cc(=O)[nH]c(N[N+](=O)[O-])n1	inactive: -6.42%
CCN(CC)C(=S)SC(NC=O)C(Cl)(Cl)Cl (stereo unspecified)	inactive: -9.82%
CC(C)NC(=O)NP(=O)(Oc1ccccc1)Oc1ccccc1	inactive: -4.37%
O=[N+]([O-])c1cc([N+](=O)[O-])c(-c2ccn[nH]2)s1	inactive: 10.2%
CC(C)c1ccc(OP(=O)(Nc2ccccn2)Oc2ccccc2F)cc1 (stereo unspecified)	inactive: -0.372%
Cc1ccc(OP(=O)(Nc2ccc([N+](=O)[O-])cn2)Oc2ccc(C)cc2)cc1	inactive: 11.2%
Cc1ccc2nc3c(c(C)c2c1)CC(C(Cl)Cl)S3 (stereo unspecified)	inactive: -2.5%
O=[As](O)(c1ccc(O)cc1)c1ccccc1O	inactive: 2.32%
C[As](=O)(O)c1cccc(C(=O)O)c1	inactive: 8.38%
O=P(Nc1ccccn1)(c1cccc2ccccc12)c1cccc2ccccc12	inactive: 2.06%
O=[N+]([O-])c1ccc(Nc2ccc(Oc3ccc([N+](=O)[O-])cc3[N+](=O)[O-])cc2)c([N+](=O)[O-])c1	inactive: -5.53%
CCOC(=O)Nc1cccc([As](=O)(O)O)c1	inactive: 8.07%
CCCCOc1ccc(C(=O)NCC2(N3CCCCC3)CCCCC2)cc1OC	inactive: -11.9%
Cc1cc(SC(NC(=O)c2ccccc2)C(Cl)(Cl)Cl)nc(C(C)C)n1 (stereo unspecified)	inactive: -4.35%
CCOC(=O)Nc1ccc([As](=O)(O)O)c(O)c1	inactive: -4.04%
CCC(C)N(CC(C)C)C(=S)SC(NC(C)=O)C(Cl)(Cl)Cl (stereo unspecified)	inactive: 12.7%
O=C(OC1CN2CCC1CC2)c1cccc([N+](=O)[O-])c1 (stereo unspecified)	inactive: 3.37%
CCOC(=O)c1ccc(NC(=O)C(C)(CCl)SC)cc1 (stereo unspecified)	inactive: 7.97%
O=C(COc1ccccc1)OC1CN2CCC1CC2 (stereo unspecified)	inactive: -6.21%
O=C(Nc1ccncc1[N+](=O)[O-])c1ccc([N+](=O)[O-])cc1[N+](=O)[O-]	inactive: 8.35%
COP1(=S)c2c(C)nn(CCC#N)c2N=C(c2ccc(F)cc2)N1C (stereo unspecified)	inactive: 7.97%
